In ChEMBL document CHEMBL5352398 (Eur J Med Chem, 2022):

Target: T1, Solute carrier family 2, facilitated glucose transporter member 9 (Mus musculus) (UniProt Q3T9X0)
T1 sequence (whole entry): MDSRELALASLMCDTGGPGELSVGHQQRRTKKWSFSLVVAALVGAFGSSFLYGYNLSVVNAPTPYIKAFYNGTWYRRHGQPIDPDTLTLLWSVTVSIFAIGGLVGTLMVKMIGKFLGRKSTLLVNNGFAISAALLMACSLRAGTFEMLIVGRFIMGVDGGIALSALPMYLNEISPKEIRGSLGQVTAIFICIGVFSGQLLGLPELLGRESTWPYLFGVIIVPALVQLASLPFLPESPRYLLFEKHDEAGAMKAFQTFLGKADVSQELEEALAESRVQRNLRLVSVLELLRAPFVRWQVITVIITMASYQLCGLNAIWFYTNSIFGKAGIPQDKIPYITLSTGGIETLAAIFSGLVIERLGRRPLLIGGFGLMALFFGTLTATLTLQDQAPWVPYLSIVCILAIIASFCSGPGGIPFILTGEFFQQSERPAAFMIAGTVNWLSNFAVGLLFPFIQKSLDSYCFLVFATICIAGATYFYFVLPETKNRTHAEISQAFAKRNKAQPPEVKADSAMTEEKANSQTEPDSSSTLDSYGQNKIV
Assay: Inhibition of mouse GLUT9 transfected in human HEK293 cells assessed as inhibition of uric acid induced current at 10 uM by cell patch-clamp assay
Assay type: cell-based

## O=C(c1cc(Cl)c(O)c(Cl)c1)n1ccc2cccnc21
  inhibition: 5.91%
